Test results reported in ChEMBL document CHEMBL2385045, “Discovery of novel 4-(2-fluorophenoxy)quinoline derivatives bearing 4-oxo-1,4-dihydrocinnoline-3-carboxamide moiety as c-Met kinase inhibitors” (Bioorg Med Chem, 2013).

Biological target: Hepatocyte growth factor receptor (Homo sapiens, UniProt P08581)
Assay: Inhibition of c-Met (unknown origin)
Outline: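 HTRF kinase assay on plates precoated with 20 µg/mL poly(Glu,Tyr) 4:1. ATP (10 mM solution) in 50 mM HEPES pH 7.0 buffer with DTT, MgCl₂, MnCl₂ and 0.1% NaN₃. Compound in 1% DMSO; reaction started with purified kinase and run 30 min at 25 °C. Stopped with Streptavidin-XL665 plus TK antibody cryptate and read at 320/615. Inhibition relative to enzyme and no-enzyme controls; IC50 from the inhibition curves.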

**Q.** With `COc1cc2nccc(Oc3ccc(NC(=O)c4c(C)n(C)n(-c5ccccc5)c4=O)cc3F)c2cc1OC` as the molecule, how does the IC50 read?
**A.** 1 nM
